The results in this text go back to ChEMBL document CHEMBL1156239, “Synthesis, anticonvulsant and antimicrobial activities of some new 2-acetylnaphthalene derivatives” (Bioorg Med Chem, 2010).

The subject of this data set is Rattus norvegicus. The data set can be described thus: Neurotoxicity in ip dosed Sprague-Dawley rat after 0.5 hrs by rotarod test. The data set is classed as toxicity, organism-based. The note with it: in vivo.

As for `CCCC(CCC)C(=O)O` [VALPROIC ACID], the 50% effective dose (ED50) (in general, the dose that gives a 50% effect, or the effect in half of the subjects) turned out to be 784 mg/kg.
